Target: substrate B (SpyCatcher-M13-LPETG-SpyTag(DA)), with the original M13 (M13-1)

catalyst C (CaM-SrtA), fusion of calmodulin and sortase A
yield of product P at 8 h with 0.1 equiv of C, against ∼10% without catalyst (SDS-PAGE densitometry): 56%

— paper PMC12291137
